For the assay, the target named is T1, yeast HSP90 (Saccharomyces cerevisiae, UniProt P02829).
T1 construct: made in house; host or cells: E. coli
Kind of assay: Malachite green ATPase assay. In kind it is biochemical. To be noted: activity range. The source says:
The intrinsic ATPase activity of HSP90 may be measured using yeast HSP90 as a model system. The assay, based on the use of malachite green for the measurement of inorganic phosphate, was used to test the HSP90 inhibitory activity of the compounds of the Examples herein.
Malachite Green ATPase Assay
Chemicals are of the highest purity commercially available and all aqueous solutions are made up in AR water. Because of the need to minimise contamination with inorganic phosphate, precautions should be taken with solutions and apparatus used in the assays. Glassware and pH meters are rinsed with double distilled or deionised water before use and, wherever possible, plastic ware should be used. Gloves are worn for all procedures. • (1) Greiner 384-well (Greiner 781101) or Costar 384-well flat-bottomed polystyrene multiwell plates (VWR). • (2) Assay buffer of (a) 100 mM Tris-HCl, pH 7.4, (b) 150 mM KCl, (c) 6 mM MgCl2. Stored at room temperature. • (3) 0.0812% (w/v) malachite green (M 9636, Sigma Aldrich Ltd., Poole, UK). […]
Method • 1. […] Measure Absorbance at 620 nm using a suitable plate reader (e.g. Victor, Perkin Elmer Life Sciences, Milton Keynes, UK). […]

Sequences of proteins named here, by UniProt entry; tags and fusion partners are left off.
UniProt P02829, whole entry: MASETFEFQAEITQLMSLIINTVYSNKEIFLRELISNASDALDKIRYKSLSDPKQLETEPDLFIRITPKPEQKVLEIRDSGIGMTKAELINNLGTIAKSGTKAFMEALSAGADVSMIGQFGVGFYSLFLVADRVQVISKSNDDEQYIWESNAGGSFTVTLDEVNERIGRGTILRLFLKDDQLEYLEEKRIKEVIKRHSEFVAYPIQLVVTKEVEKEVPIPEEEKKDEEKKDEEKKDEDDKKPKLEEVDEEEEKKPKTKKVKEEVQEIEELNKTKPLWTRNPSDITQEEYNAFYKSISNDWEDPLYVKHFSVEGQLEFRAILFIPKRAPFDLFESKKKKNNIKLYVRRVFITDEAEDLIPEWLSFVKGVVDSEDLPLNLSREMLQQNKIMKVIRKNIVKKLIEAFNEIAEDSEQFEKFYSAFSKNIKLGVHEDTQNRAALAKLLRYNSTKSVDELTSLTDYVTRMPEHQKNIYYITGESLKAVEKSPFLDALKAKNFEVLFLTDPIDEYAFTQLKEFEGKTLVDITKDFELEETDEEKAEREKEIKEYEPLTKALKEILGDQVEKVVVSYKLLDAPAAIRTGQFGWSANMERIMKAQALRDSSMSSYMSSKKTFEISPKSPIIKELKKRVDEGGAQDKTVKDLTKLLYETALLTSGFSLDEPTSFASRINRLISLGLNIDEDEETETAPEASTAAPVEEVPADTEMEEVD

Each structure is given as a SMILES string.

One may read the IC50 as the midpoint of a concentration-inhibition curve.

For `CS(=O)(=O)c1ccc(CN2CCN(c3c[nH]nc3-c3cc(Cl)c(O)cc3O)CC2)cc1` [Example 12], the IC50 is below 50 µM.
For `Oc1cc(O)c(-c2n[nH]cc2N2CCN(Cc3ccccc3)CC2)cc1Cl` [Example 24] the value was below 50 µM.

(Values after US7612201B2, “Pyrazole compounds” (Vernalis (Cambridge) Limited, priority 2002, dated 2009).)
